In patent US4529737A, “Analgesic and anti-inflammatory arylalkanoic acid phthalidyl esters and pharmaceutical compositions thereof” (priority 1979, dated 1985) one finds LD50 data, which are given here for one molecule.

A short description of series [1]: in vivo.
A short description of series [2]: in vivo. This is another data set of the same source.

Where two headings read alike, the source gives them in different places.

The LD50 is the dose at which mortality reaches 50%. A low value points to greater toxicity. `C=CCOc1ccc(CC(=O)O)cc1Cl` [Compound V, 4-allyloxy-3-chlorophenylacetic acid, reference compound]: the median lethal dose (LD50) in series [1] was 1090 mg/kg; in series [2], 1030 mg/kg.
